Rows were chosen to be rich in hits. Some 13% of all compounds tested hit in one or more screens of this group.
JMJD2E inh – inhibitors of human JMJD2E histone demethylase | actives 1.6% (n = 230,000) | AID 2147 | Potency, µM (top dose mostly 57.1 µM), without a hit: top-dose activity change, negative = inhibition, hits mostly inhibitors | JMJD2E catalytic domain, FDH-coupled NADH fluorescence (FDH is formaldehyde dehydrogenase) | B2RXH2; active = well fitted inhibition curve with a large enough effect, not every such curve was filed as active; inconclusive = small, poorly fitted or top-dose-only effect, or another doubt; inactive = no such curve, though single readings can be large or run the other way;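 also: potency is read from the fitted curve at half-maximal effect; 0% = wells with enzyme and -100% = buffer wells without enzyme; nearly all actives have a fitted effect of over 50% in size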
ALDH1A1 block – inhibitors of human aldehyde dehydrogenase 1A1; actives 7.3% (n = 220,000); Purified ALDH1A1, NADH fluorescence, propionaldehyde substrate; Potency, µM (top dose mostly 75.3 µM), inactives show at the highest dose activity, negative = inhibition, hits mostly inhibitors; P00352; active = well fitted inhibition curve with a large enough effect, not every such curve was filed as active; inconclusive = small, poorly fitted or top-dose-only effect, or another doubt; inactive = no such curve, though single readings can be large or run the other way;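 also: potency is read from the fitted curve at half-maximal effect; plate controls were no enzyme wells and a reference inhibitor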
miR-21 FLuc – miR-21 reporter, rising signal; Potency, µM (titrated, usually from 38.3 µM), without a hit: at the highest dose reporter change, positive = more light; AID 2288; 340,000 tested, under 10 active; HeLa miR-21 FLuc reporter, luciferase, 48 h; active = well fitted rising curve with a large enough effect; inconclusive = small, poorly fitted or top-dose-only effect; inactive = no such curve, though single readings can be large or run the other way;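 note: % of control where 0% means no effect; miR-21 action dims this reporter so a rising signal means less miR-21 action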
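HeLa cells endogenously expressing miR-21, stably carrying CMV-driven firefly luciferase with a downstream miR-21 binding site, 2000 cells/well. Titrations up to approximately 40 uM, 48 hours; luciferase luminescence read.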
Lamin A splicing – modulators of lamin A splicing; HeLa LMNA splicing GFP/RFP minigene ratio, 48 h; Potency, µM (doses to about 46.1 µM), for the others: top-dose ratio change, negative = inhibition, hits mostly inhibitors; actives 0.01% (n = 200,000); AID 1487; active = well fitted inhibition curve with a large enough effect in the signal ratio, with a control signal flat, not every such curve was filed as active; inconclusive = small, poorly fitted or top-dose-only effect, or effect the other way, or a change in a side signal; the % refers to the signal ratio; also: potency is read from the fitted curve at half-maximal effect; % is scaled to controls: 0 for no effect and ±100 for the full control effect
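S3 HeLa cells stably expressing lamin A-EGFP splicing minigene plus DsRed2, 600 cells/well, 48 h compound exposure at 37C. Laser-scanning cytometry; analysed as GFP (500-530 nm)/RFP (575-640 nm) total intensity ratio; 0.5% DMSO vehicle.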
Sfp inh – qHTS Assay for Inhibitors of Bacillus subtilis Sfp phosphopantetheinyl transferase (PPTase); 4'-phosphopantetheinyl transferase ffp (Bacillus subtilis), Q9F4F7; Biochemical Sfp PPTase activity, qHTS; Potency, µM, for inactives: max response, negative = inhibition, most hits filed as inhibitors; hit rate 3.5% among 310,000; AID 1490, 2009; active = well fitted inhibition curve with a large enough effect; inconclusive = small, poorly fitted or top-dose-only effect, or another doubt; inactive = no such curve, though single readings can be large or run the other way;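 also: the enzyme is Sfp with the accession as filed and its product quenches rhodamine fluorescence; potency is read from the fitted curve at half-maximal effect; 0% = enzyme reaction without inhibitor and -100% = no enzyme wells; top concentration of the series not given in the record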
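Sfp 15 nM + cpd, 15 min RT; start w/ rhodamine-CoA 5 uM, BHQ-2-YbbR 12.5 uM (final); 50 mM Hepes pH 7.6, 10 mM MgCl2, 0.01% NP-40, 0.01% BSA; read 525/598 nm at 0 and 30 min.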
G9a inh – G9a (human) methyltransferase inhibition. G9a H3K9 monomethylation, AlphaScreen, 2 h. Potency, µM (doses to about 102 µM), for the others: at the top dose activity, negative = inhibition, hits mostly inhibitors. actives 8.8% (n = 350,000). AID 504332; also: potency is read from the fitted curve at half-maximal effect; % is scaled to controls: 0 for no effect and ±100 for the full control effect; nearly all actives have a fitted effect of over 75% in size
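G9a (20 nM) preincubated 15 min RT with compounds, then 500 nM biotinylated H3K9 peptide and 20 uM SAM added; 2 h RT reaction. Monomethyl-H3K9 product detected by AlphaScreen with anti-H3K9me1 antibody, streptavidin donor and anti-rabbit IgG acceptor beads.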
The depositor's hits bear a star; [ ] = another dose, or the depositor's remark. Unless noted, calls follow the shape of the dose curve; as a rule, active = well fitted curve in the direction sought with a large enough effect; inconclusive = small, poorly fitted or top-dose-only effect, or another doubt; inactive = no such curve, though single readings can be large; an effect the other way counts as inactive or inconclusive.

What do the screens show for `O=C(NCc1ccco1)/C(=C/c1ccc(C(F)(F)F)cc1)c1nc2ccccc2[nH]1`?
JMJD2E inh: inconclusive; ALDH1A1 block: inconclusive; miR-21 FLuc: -45.8%; Lamin A splicing: inconclusive; Sfp inh: inconclusive; G9a inh: 15.8µM*

Results for O=C1CCC(C(=O)N2CCCCO2)CN1Cc1cccc(F)c1 (stereo unspecified) ?
miR-21 FLuc: -8.2%; Sfp inh: 21.4%; G9a inh: 17.7%

Results for Cc1c(C)n(Cc2ccccc2)c2ncnc(NN)c12 ?
miR-21 FLuc: -15.0%; Sfp inh: 56.2µM*; G9a inh: -15.7%

How did COCCn1c(C)c(C)c2c(NCCc3ccccc3)ncnc21 do in these assays?
miR-21 FLuc: -12.7%; Sfp inh: inconclusive; G9a inh: 28.2µM*

Results for O=C(Cc1cccc(C(F)(F)F)c1)Nc1ccccc1 ?
JMJD2E inh: -12.1%; ALDH1A1 block: -6.4%; miR-21 FLuc: 4.2%; Lamin A splicing: 19.8%[46 µM]; Sfp inh: -0.2%

How did OCCN(Cc1ccccc1)Cc1ccc(C(F)(F)F)cc1 do in these assays?
JMJD2E inh: -22.3%; ALDH1A1 block: -9.9%; miR-21 FLuc: -2.5%; Lamin A splicing: 0.8%; Sfp inh: -14.3%; G9a inh: 28.2µM*

What do the screens show for `CN(Cc1ccc(C(F)(F)F)cc1)C(=O)c1ccc(Oc2ccccc2)cc1`?
miR-21 FLuc: 0.5%; Sfp inh: 9.1%; G9a inh: -2.5%[2.33 µM]

How did OCCN(Cc1ccccc1)Cc1cccc(C(F)(F)F)c1 do in these assays?
JMJD2E inh: -23.7%; ALDH1A1 block: -6.1%; miR-21 FLuc: -4.1%; Lamin A splicing: 9.2%; Sfp inh: -8.7%; G9a inh: 17.8µM*

How did Cc1nn(C(C)C(=O)N2CCN(c3ccc(F)cc3)CC2)c(=O)c2c1sc1ccccc12 (stereo unspecified) do in these assays?
miR-21 FLuc: -36.8%; G9a inh: -0.2%[59 µM]

What do the screens show for `Cn1cnnc1Sc1ccc(/C=C(\CCC(=O)O)c2nc3ccccc3s2)cc1[N+](=O)[O-]`?
JMJD2E inh: -21.6%; ALDH1A1 block: 11.9µM*; miR-21 FLuc: -2.1%; Sfp inh: -14.1%; G9a inh: inconclusive

Results for COc1ccc(NC(=O)/C(C#N)=C/c2ccc(Sc3nncn3C)c([N+](=O)[O-])c2)cc1 ?
JMJD2E inh: -16.3%; ALDH1A1 block: 11.2µM*; miR-21 FLuc: 4.5%; Lamin A splicing: 8.7%[46 µM]; Sfp inh: -18.2%; G9a inh: inconclusive

How did CN(c1ccccc1)c1ccc(/C=C(\CCC(=O)O)c2nc3ccccc3s2)cc1[N+](=O)[O-] do in these assays?
JMJD2E inh: -5.7%; ALDH1A1 block: 12.6µM*; miR-21 FLuc: -7.4%; Lamin A splicing: inconclusive; Sfp inh: 7.0%; G9a inh: inconclusive

3 structures from above, arranged by length of the SMILES, falling:
How did CN(c1ccccc1)c1ccc(/C=C(\CCC(=O)O)c2nc3ccccc3s2)cc1[N+](=O)[O-] do in these assays?
JMJD2E inh: -5.7%; ALDH1A1 block: 12.6µM*; miR-21 FLuc: -7.4%; Lamin A splicing: inconclusive; Sfp inh: 7.0%; G9a inh: inconclusive

What do the screens show for `CN(Cc1ccc(C(F)(F)F)cc1)C(=O)c1ccc(Oc2ccccc2)cc1`?
miR-21 FLuc: 0.5%; Sfp inh: 9.1%; G9a inh: -2.5%[2.33 µM]

How did COCCn1c(C)c(C)c2c(NCCc3ccccc3)ncnc21 do in these assays?
miR-21 FLuc: -12.7%; Sfp inh: inconclusive; G9a inh: 28.2µM*

Other records.
Results for Cc1ccc(S(=O)(=O)N(CC(=O)Nc2ccc3c(c2)OCO3)c2cc(Cl)cc(Cl)c2)cc1 ?
miR-21 FLuc: -10.3%; G9a inh: 7.0%[59 µM]

What do the screens show for `O=C(CSc1nnc(-c2cccnc2)o1)N1CCCCC1`?
miR-21 FLuc: -10.6%; Sfp inh: 7.8%; G9a inh: -6.2%

How did O=C(Oc1csc(=S)n1C(=O)c1ccccc1)c1ccccc1 do in these assays?
JMJD2E inh: -34.4%; ALDH1A1 block: 3.16µM*; miR-21 FLuc: 3.2%; Lamin A splicing: -0.3%; Sfp inh: 39.8µM*; G9a inh: 1µM*

How did Cc1cccc(C(=O)Oc2csc(=S)n2C(=O)c2cccc(C)c2)c1 do in these assays?
JMJD2E inh: inconclusive; ALDH1A1 block: 8.91µM*; miR-21 FLuc: 0.6%; Lamin A splicing: 1.6%; Sfp inh: 44.7µM*; G9a inh: 1.58µM*

Results for Cc1cccc(C(=O)Nc2cccc(OC(=O)c3cccc(C)c3)c2)c1 ?
JMJD2E inh: -1.0%; ALDH1A1 block: 7.1%; miR-21 FLuc: -40.8%; Lamin A splicing: -0.7%; Sfp inh: 13.9%; G9a inh: 25.1%[12.7 µM]

What do the screens show for `CC(=O)c1cccc(OCc2cc(C(=O)NCc3nc(C)c(C)s3)no2)c1`?
miR-21 FLuc: -43.6%; Sfp inh: -1.3%; G9a inh: 13.2%

Results for Cc1cc(C)c2c(n1)sc1c(-c3ccccc3)c(C#N)c(N)nc12 ?
JMJD2E inh: 2.9%; ALDH1A1 block: -7.1%; miR-21 FLuc: -1.7%; Lamin A splicing: 12.8%; Sfp inh: -8.3%; G9a inh: 7.94µM*

Results for COc1ccc(CN2CCCC(C(=O)N(C)Cc3ccccc3)C2)cc1OC (stereo unspecified) ?
JMJD2E inh: 5.1%; ALDH1A1 block: 2.4%; miR-21 FLuc: -4.3%; Lamin A splicing: inconclusive; Sfp inh: -26.0%; G9a inh: 10µM*

Results for CCOC(=O)C1CCCN(Cc2ccc(OC)c(OCc3ccccc3)c2)C1 (stereo unspecified) ?
miR-21 FLuc: -0.7%; Sfp inh: -11.6%; G9a inh: 44.7µM*

Results for CCS(=O)(=O)c1nc(S(=O)(=O)c2ccc(Cl)cc2)c(NCc2ccccn2)s1 ?
JMJD2E inh: -1.4%; ALDH1A1 block: 12.6µM*; miR-21 FLuc: 1.3%; Sfp inh: -1.7%; G9a inh: 9.2%

What do the screens show for `CCS(=O)(=O)c1nc(S(=O)(=O)c2ccc(Cl)cc2)c(N2CCc3ccccc3C2)s1`?
JMJD2E inh: -6.0%; ALDH1A1 block: 1.41µM*; miR-21 FLuc: -8.1%; Lamin A splicing: inconclusive; Sfp inh: 9.9%; G9a inh: 8.91µM*

What do the screens show for `CCNc1sc(S(C)(=O)=O)nc1S(=O)(=O)c1ccc(Cl)cc1`?
JMJD2E inh: -16.5%; ALDH1A1 block: -7.5%; miR-21 FLuc: -3.5%; Sfp inh: 1.3%; G9a inh: -18.9%

What do the screens show for `CCN(CC(=O)NCc1ccccn1)S(=O)(=O)c1ccc(Cl)cc1`?
JMJD2E inh: 4.1%; ALDH1A1 block: inconclusive; miR-21 FLuc: -4.8%; Lamin A splicing: -2.1%; Sfp inh: inconclusive; G9a inh: 12.6µM*

How did N#CCC(=O)Nc1ccc(C(=O)OCC(=O)N(C2CCCCC2)C2CCCCC2)cc1 do in these assays?
miR-21 FLuc: 15.1%; Sfp inh: 11.3%; G9a inh: 0.8%

What do the screens show for `COc1ccccc1CNC(=O)CCC1N=C2c3ccccc3N=C(SCc3ccc(Cl)cc3)N2C1=O` (stereo unspecified)?
miR-21 FLuc: inconclusive; Lamin A splicing: inconclusive; G9a inh: -17.0%[59 µM]

How did Cc1ccn2c(c1)nc(=O)c1cc(S(=O)(=O)N3CCC(C)CC3)c(Cl)cc12 do in these assays?
miR-21 FLuc: -6.0%; G9a inh: 2.6%[59 µM]

What do the screens show for `Cc1cccc(C)c1NC(=O)c1sccc1SCC#N`?
JMJD2E inh: 8.3%; ALDH1A1 block: -3.7%; miR-21 FLuc: -7.0%; Lamin A splicing: -12.0%; Sfp inh: 5.1%; G9a inh: 11.2µM*

Compound activity: PubChem BioAssay, National Center for Advancing Translational Sciences (NCATS)
